system: MEFs; experiment: RIPK1 kinase-dependent necroptosis (hTNF + TAK1i + zVAD.fmk) in MEFs, Sytox Green; type: cell-based; conditions: Mus musculus, zVAD.fmk + TAK1i + hTNF (100 pg/mL)

Row | Structure (SMILES) | IC50
1 | Cc1cccc(CC(=O)N2CCc3c2ccc(-c2cn(C)c4ncnc(N)c24)c3F)n1 [Compound 10] | 4.4 nM
2 | Cn1cc(-c2ccc3c(c2F)CCN3C(=O)Cc2ccc(C(F)(F)F)cn2)c2c(N)ncnc21 [Compound 22] | 15 nM
3 | CN1C(=O)[C@@H](NC(=O)c2n[nH]c(Cc3ccccc3)n2)COc2ccccc21 [GSK’772] | > 100 nM

From publication PMC10119423, “From PERK to RIPK1: Design, synthesis and evaluation of novel potent and selective necroptosis inhibitors” (Frontiers in Chemistry, 2023)
